Reference: patent US20260216157A1, “TETRAHYDROTHIOPHENE DERIVATIVE AND USE THEREOF IN MEDICINE” (Haisco Pharmaceutical Group Co., Ltd., priority 2023, published 2026)

Chains of the proteins cited; added tags and fusions are not shown.
UniProt Q9Y5Y9, whole entry: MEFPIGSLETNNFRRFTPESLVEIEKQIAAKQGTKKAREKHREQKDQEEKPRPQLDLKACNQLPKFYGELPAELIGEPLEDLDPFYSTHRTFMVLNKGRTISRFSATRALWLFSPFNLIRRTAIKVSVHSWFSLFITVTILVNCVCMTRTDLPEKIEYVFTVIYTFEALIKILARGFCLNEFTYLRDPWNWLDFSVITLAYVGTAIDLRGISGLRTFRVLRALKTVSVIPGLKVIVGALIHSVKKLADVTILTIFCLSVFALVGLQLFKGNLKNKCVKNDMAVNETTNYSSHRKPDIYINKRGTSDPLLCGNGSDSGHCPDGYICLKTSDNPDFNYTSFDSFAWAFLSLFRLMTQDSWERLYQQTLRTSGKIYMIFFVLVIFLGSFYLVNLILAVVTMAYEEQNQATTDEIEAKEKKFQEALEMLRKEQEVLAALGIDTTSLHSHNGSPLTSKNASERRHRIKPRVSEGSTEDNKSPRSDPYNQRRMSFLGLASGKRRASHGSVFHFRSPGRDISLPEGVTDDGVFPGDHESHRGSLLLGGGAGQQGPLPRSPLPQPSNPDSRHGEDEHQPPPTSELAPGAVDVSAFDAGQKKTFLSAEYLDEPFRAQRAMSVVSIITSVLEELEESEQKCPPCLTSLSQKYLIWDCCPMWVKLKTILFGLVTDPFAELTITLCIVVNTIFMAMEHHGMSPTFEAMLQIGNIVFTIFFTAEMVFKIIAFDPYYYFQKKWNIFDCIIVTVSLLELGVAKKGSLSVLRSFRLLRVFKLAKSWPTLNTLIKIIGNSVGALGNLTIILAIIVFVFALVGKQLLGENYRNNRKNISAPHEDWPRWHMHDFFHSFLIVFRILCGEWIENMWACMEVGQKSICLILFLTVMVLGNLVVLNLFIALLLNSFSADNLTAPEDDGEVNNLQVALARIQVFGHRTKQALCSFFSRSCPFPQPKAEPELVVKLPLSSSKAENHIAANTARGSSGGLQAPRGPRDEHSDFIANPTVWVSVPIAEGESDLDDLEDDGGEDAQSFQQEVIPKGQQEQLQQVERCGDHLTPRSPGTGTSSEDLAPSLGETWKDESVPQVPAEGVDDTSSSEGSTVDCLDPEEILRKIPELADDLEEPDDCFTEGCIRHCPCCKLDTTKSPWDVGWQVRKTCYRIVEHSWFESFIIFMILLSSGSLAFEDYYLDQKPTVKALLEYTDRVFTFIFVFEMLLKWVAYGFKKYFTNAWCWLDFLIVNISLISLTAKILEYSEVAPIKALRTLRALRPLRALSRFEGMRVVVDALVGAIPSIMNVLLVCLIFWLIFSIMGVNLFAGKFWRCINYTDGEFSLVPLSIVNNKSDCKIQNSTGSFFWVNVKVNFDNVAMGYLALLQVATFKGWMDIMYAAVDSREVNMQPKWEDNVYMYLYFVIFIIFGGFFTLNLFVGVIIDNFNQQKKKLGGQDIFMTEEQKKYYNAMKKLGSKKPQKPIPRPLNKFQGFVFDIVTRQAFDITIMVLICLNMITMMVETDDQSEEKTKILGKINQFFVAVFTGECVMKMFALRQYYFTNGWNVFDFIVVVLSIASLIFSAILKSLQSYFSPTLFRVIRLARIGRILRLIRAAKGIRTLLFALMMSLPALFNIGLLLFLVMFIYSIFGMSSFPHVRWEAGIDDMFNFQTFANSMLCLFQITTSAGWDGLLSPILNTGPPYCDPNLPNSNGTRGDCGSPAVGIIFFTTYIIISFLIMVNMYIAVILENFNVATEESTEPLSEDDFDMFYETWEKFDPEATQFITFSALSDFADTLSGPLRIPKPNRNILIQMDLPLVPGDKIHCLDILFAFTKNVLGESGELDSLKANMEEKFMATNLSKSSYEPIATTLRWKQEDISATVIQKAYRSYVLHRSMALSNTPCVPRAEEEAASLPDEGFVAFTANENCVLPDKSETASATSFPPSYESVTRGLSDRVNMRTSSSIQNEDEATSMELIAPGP

These compounds were tested against hNav1.8 (Homo sapiens, UniProt Q9Y5Y9) (assay: Nav1.8 manual patch clamp test). Conditions: read-out: Inhibitory activity (IC50) against hNav1.8; CHO cells stably expressing human Nav1.8; whole-cell patch clamp, half-inactivated state.
Assay type: cell-based

**Q.** Which IC50 does the source give for COc1c([C@@H]2[C@@H](C)[C@](C)(C(F)(F)F)S[C@H]2C(=O)Nc2ccn(C)c(=O)c2)ccc(F)c1F (relative stereo) here?
**A.** < 0.01 µM

**Q.** For COc1c([C@@H]2[C@@H](C)[C@](C)(C(F)(F)F)S[C@H]2C(=O)Nc2ccnc(C(N)=O)c2)ccc(F)c1F (relative stereo), which IC50 is on record?
**A.** < 0.01 µM

**Q.** COc1c([C@H]2[C@H](C(=O)Nc3ccc(F)c(C(N)=O)c3)S[C@@](C)(C(F)(F)F)[C@H]2C)ccc(F)c1F (relative stereo) was tested. Which IC50 did it give?
**A.** < 0.0001 µM

**Q.** With COc1c([C@H]2[C@H](C(=O)Nc3ccc(F)c(S(N)(=O)=O)c3)S[C@@](C)(C(F)(F)F)[C@H]2C)ccc(F)c1F (relative stereo) as the compound, how does the IC50 read?
**A.** < 0.0001 µM

**Q.** COc1c([C@H]2[C@H](C(=O)Nc3cccc(S(C)(=O)=O)c3)S[C@@](C)(C(F)(F)F)[C@H]2C)ccc(F)c1F (relative stereo) was tested. Which IC50 did it give?
**A.** < 0.0001 µM

**Q.** For COc1c([C@H]2[C@H](C(=O)Nc3cccc(S(N)(=O)=O)c3)S[C@@](C)(C(F)(F)F)[C@H]2C)ccc(F)c1F (relative stereo), which IC50 is on record?
**A.** < 0.01 µM

**Q.** How did the IC50 turn out when C[C@H]1[C@@H](c2ccc(OC(F)(F)F)c3c2OCC3(C)C)[C@H](C(=O)Nc2ccnc(C(N)=O)c2)S[C@@]1(C)C(F)(F)F (relative stereo) was run?
**A.** < 0.01 µM

**Q.** With C[C@H]1[C@@H](c2ccc(F)c3c2CCC3)[C@H](C(=O)Nc2ccnc(C(N)=O)c2)S[C@@]1(C)C(F)(F)F (relative stereo) [Mixture of compounds 21-7a and 21-7b] as the compound, how does the IC50 read?
**A.** < 0.001 µM

Same assay, conditions: read-out: Inhibitory activity (IC50) against hNav1.8; CHO cells stably expressing human Nav1.8; whole-cell patch clamp, half-inactivated state; tested form: TFA

**Q.** Which IC50 does the source give for COc1c([C@H]2[C@H](C(=O)Nc3ccc(C(O)CO)nc3)S[C@@](C)(C(F)(F)F)[C@H]2C)ccc(F)c1F (some centres unmarked) here?
**A.** < 0.01 µM

**Q.** How did the IC50 turn out when COc1c([C@H]2[C@H](C(=O)Nc3cccc(S(C)(=N)=O)c3)S[C@@](C)(C(F)(F)F)[C@H]2C)ccc(F)c1F (some centres unmarked) was run?
**A.** < 0.01 µM

**Q.** For COc1c([C@H]2[C@H](C(=O)Nc3ccnc(C(O)CO)c3)S[C@@](C)(C(F)(F)F)[C@H]2C)ccc(F)c1F (some centres unmarked), which IC50 is on record?
**A.** < 0.001 µM
